Experimental findings from patent publication US7247440B2, “Method of screening preventives or remedies for obesity” (Takeda Pharmaceutical Company Limited, priority 2001, dated 2007) are described below.

In test [1] the target is T1, GPR7 (Homo sapiens, UniProt P48145).
T1 sequence (P48145 1-328): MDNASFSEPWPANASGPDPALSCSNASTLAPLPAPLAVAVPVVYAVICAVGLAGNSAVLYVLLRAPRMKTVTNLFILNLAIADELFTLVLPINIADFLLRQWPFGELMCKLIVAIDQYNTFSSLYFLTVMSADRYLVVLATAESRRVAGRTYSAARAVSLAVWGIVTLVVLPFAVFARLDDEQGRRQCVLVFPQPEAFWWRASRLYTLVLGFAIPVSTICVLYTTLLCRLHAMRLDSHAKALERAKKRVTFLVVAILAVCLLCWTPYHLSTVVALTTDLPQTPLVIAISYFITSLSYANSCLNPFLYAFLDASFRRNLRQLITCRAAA
The test is described as follows: Intracellular cAMP production suppressing activity in human GPR7-expressed CHO cells. The following applies: for intracellular cAMP production suppressing activity (in words): human GPR7-expressed CHO cells, forskolin. Also noted: expressed in transfected cells; host or cells: membrane fraction of CHO dhfr- cells transfected with pAKKO-Human GPR7. The class given is cell-based. The protocol:
The human GPR7-expressed CHO cells, which were prepared in REFERENCE EXAMPLE 68 and selected as described in REFERENCE EXAMPLE 69, were seeded on a 24-well plate in 5×10^4 cells/well, followed by incubation for 48 hours. The cells were washed with a MEMα buffer (pH7.4) containing 0.2 mM 3-isobutyl-methylxanthine, 0.05% BSA (bovine serum albumin) and 20 mM HEPES (hereinafter the MEMα buffer (pH7.4) containing 0.2 mM 3-isobutyl-methylxanthine, 0.05% BSA and 20 mM HEPES is referred to as a reaction buffer). Thereafter, 0.5 ml of the reaction buffer was added to the cells, which was then kept warm in an incubator for 30 minutes. The reaction buffer was removed and after 0.25 ml of a fresh reaction buffer was replenished to the cells, a sample solution in DMSO having an appropriate concentration and 0.25 ml of the reaction buffer containing 2 μM of forskolin were added to the cells, followed by reacting at 37° C. for 30 minutes. The reaction was terminated by adding 100 μl of 20% perchloric acid. Next, the reaction mixture was put on ice for an hour to extract intracellular cAMP. The level of cAMP in the extract was determined by cAMP EIA Kit (Amersham Pharmacia Biotech).
Following the method described in REFERENCE EXAMPLE 70, hGPR8L (1-23) (SEQ ID NO:16) or hGPR8L (1-30) (SEQ ID NO:17) was given to the human GPR7-expressed CHO cells in various concentrations to determine the intracellular cAMP production suppressing activity. The results are shown in FIG. 14, wherein the cAMP synthesis suppressing activity is expressed by the value in terms of % of the intracellular cAMP level, which was obtained by subtracting the intracellular cAMP level accumulated where hGPR8L (1-23) or hGPR8L (1-30) was added, from the intracellular cAMP level accumulated where the reaction buffer was added, taking as 100% the intracellular cAMP level obtained by subtracting the intracellular cAMP level accumulated where the reaction buffer was added, from the intracellular cAMP level accumulated where the reaction buffer containing forskolin was added.
On the technique in general: cAMP levels reflect the balance of adenylyl cyclase and phosphodiesterase activity.

For test [2], the target named is T1, GPR7. The test is described as follows: Receptor binding test using [125I-Tyr10]-hGPR8L (1-23) and human GPR7-expressed CHO cell membrane fraction. Also noted: expressed in transfected cells; host or cells: membrane fraction of CHO dhfr- cells transfected with pAKKO-Human GPR7. The following applies: for binding inhibition of [125I-Tyr10]-hGPR8L (1-23) / affinity (in words): human GPR7-expressed CHO cell membrane fraction. The method, then:
Receptor binding test was carried out using [^125I-Tyr^10]-hGPR8L (1-23) prepared as described in REFERENCE EXAMPLE 42 and the cell membrane fraction prepared from the human GPR7-expressed CHO cells.
To 1×10^8 of the human GPR7-expressed CHO cells was added 10 ml of a homogenate buffer (10 mM NaHCO3, 5 mM EDTA (ethylenediaminetetraacetic acid), 0.5 mM PMSF (phenylmethanesulfonyl fluoride), 1 μg/ml pepstatin, 4 μg/ml E64 and 20 μg/ml leupeptin). The mixture was homogenized by using Polytron (12,000 rpm, 1 min.). The cell homogenate was centrifuged (1,000 g, 15 mins.) to obtain the supernatant. Next, the supernatant was subjected to ultracentrifugation (Beckman type 30 rotor, 30,000 rpm, 1 hour). The resulting precipitate was used as a human GPR7-expressed CHO cell membrane fraction.
The thus prepared cell membrane fraction was diluted in various concentrations with an assay buffer (25 mM Tris-HCl, 5 mM EDTA, 0.05% CHAPS (3-[(3-choramidopropyl)dimethylammonio]-1-propanesulfonate), 0.1% BSA, 0.5 mM PMSF, 1 μg/ml pepstatin, 20 μg/ml leupeptin and 4 μg/ml E-64, pH 7.4). Then, a 200 μl aliquot of the dilution was dispensed into a propylene-made testing tube (Falcon 2053). In order to assay for the total binding, 2 μl of DMSO and 2 μl of 8 nM [^125I-Tyr^10]-hGPR8L (1-23) was added to the membrane fraction solution. Also, the non-specific binding was assayed by adding 2 μl of a DMSO solution of 1 mM hGPR8L (1-23) and 2 μl of 8 nM [^125I-Tyr^10]-hGPR8L (1-23) to the membrane fraction solution. After reacting at 25° C. for 75 minutes, the reaction solution was suction-filtrated through a polyethyleneimine-treated Whatman glass filter (GF-F), and the filter was washed twice with ˜1.5 ml of a wash buffer (25 mM Tris-HCl, 5 mM EDTA, 0.05% CHAPS, 0.1% BSA, pH 7.4). After the filtration, the residual radioactivity remained on the filter paper was measured with a γ-counter, and the specific binding was estimated by subtracting the non-specific binding from the total binding. […]

Take `CSCC[C@H](NC(=O)[C@H](CC(C)C)NC(=O)[C@H](CC(C)C)NC(=O)CNC(=O)[C@H](C)NC(=O)[C@H](C)NC(=O)[C@H](CCCNC(=N)N)NC(=O)CNC(=O)[C@@H](NC(=O)[C@@H](NC(=O)[C@H](Cc1c[nH]cn1)NC(=O)[C@H](Cc1ccc(O)cc1)NC(=O)[C@H](CCCNC(=N)N)NC(=O)[C@@H]1CCCN1C(=O)[C@H](CO)NC(=O)[C@H](C)NC(=O)[C@@H](NC(=O)[C@H](Cc1c[nH]cn1)NC(=O)[C@H](CCCCN)NC(=O)[C@H](Cc1ccc(O)cc1)NC(=O)[C@@H](N)Cc1c[nH]c2ccccc12)C(C)C)[C@@H](C)O)C(C)C)C(=O)NCC(=O)N[C@@H](CC(C)C)C(=O)N[C@@H](CCCNC(=N)N)C(=O)N[C@@H](CCCNC(=N)N)C(=O)N[C@@H](CO)C(=O)N1CCC[C@H]1C(=O)N[C@@H](Cc1ccc(O)cc1)C(=O)N[C@@H](CC(C)C)C(=O)N[C@@H](Cc1c[nH]c2ccccc12)C(=O)O` [hGPR8L(1–30)]: in test [1], the “intracellular cAMP production suppressing activity (in words)” value is “suppressed the intracellular cAMP production dose-dependently”. For the same compound, the “binding inhibition of [125I-Tyr10]-hGPR8L (1-23) / affinity (in words)” value in test [2] is recorded as “high affinity”. The compound further yielded an IC50 in test [2] (inhibition of [125I-Tyr10]-hGPR8L (1-23) binding, GPR7-expressed CHO cell membrane fraction) of 0.025 nM.

Take `CSCC[C@H](NC(=O)[C@H](CC(C)C)NC(=O)[C@H](CC(C)C)NC(=O)CNC(=O)[C@H](C)NC(=O)[C@H](C)NC(=O)[C@H](CCCNC(=N)N)NC(=O)CNC(=O)[C@@H](NC(=O)[C@@H](NC(=O)[C@H](Cc1c[nH]cn1)NC(=O)[C@H](Cc1ccc(O)cc1)NC(=O)[C@H](CCCNC(=N)N)NC(=O)[C@@H]1CCCN1C(=O)[C@H](CO)NC(=O)[C@H](C)NC(=O)[C@@H](NC(=O)[C@H](Cc1c[nH]cn1)NC(=O)[C@H](CCCCN)NC(=O)[C@H](Cc1ccc(O)cc1)NC(=O)[C@@H](N)Cc1c[nH]c2ccccc12)C(C)C)[C@@H](C)O)C(C)C)C(=O)NCC(=O)N[C@@H](CC(C)C)C(=O)O` [hGPR8L(1–23)]: the IC50 in test [1] (forskolin-stimulated human GPR7-expressed CHO cells, read-out: 50% inhibitory concentration (IC50) from the cAMP production level) came out at 0.025 nM. The “intracellular cAMP production suppressing activity (in words)” value in test [1] is recorded as “suppressed the intracellular cAMP production dose-dependently”. The “binding inhibition of [125I-Tyr10]-hGPR8L (1-23) / affinity (in words)” value in test [2] is “high affinity”.
